According to US20070155739A1, “Substituted bis-amide metalloprotease inhibitors” (ALANTOS PHARMACEUTICALS, INC., priority 2005, published 2007):

Biological target: MMP-13 (Homo sapiens, UniProt P45452)
Assay: Assay for determining MMP-13 inhibition (fluorogenic substrate)
Conditions: read-out: IC50 (nM), Summary of MMP-13 Activity for Compounds of Formula I; Table 1; tested form: TFA
Protocol: The MMP-13 inhibiting activity of the bis-amide metalloprotease inhibiting compounds of the present invention may be measured using any suitable assay known in the art. A standard in vitro assay for MMP-13 inhibiting activity is described in Example 999 and a description of the microsomal stability assay is described in Example 999a.
Assay for Determining MMP-13 Inhibition
The typical assay for MMP-13 activity is carried out in assay buffer comprised of 50 mM Tris, pH 7.5, 150 mM NaCl, 5 mM CaCl2 and 0.05% Brij-35. Different concentrations of tested compounds are prepared in assay buffer in 50 μL aliquots. 10 μL of 40 nM stock solution of MMP-13 enzyme is added to the compound solution. The mixture of enzyme and compound in assay buffer is thoroughly mixed and incubated for 20 minutes at room temperature. Upon the completion of incubation, the assay is started by addition of 40 μL of 12.5 μM stock solution of MMP-13 fluorogenic substrate (Calbiochem Cat. No. 444235). The time-dependent increase in fluorescence is measured at the 325 nm excitation and 393 nm emission by automatic plate multireader. The IC50 values are calculated from the initial reaction rates. Selectivity assays were run in a similar manner using MMP-1, MMP-3, MMP-8, MMP-12, MMP-14 and TACE.

C[C@H](NC(=O)c1cc(C(=O)NCc2ccc(F)cc2)ncn1)c1ccc(-c2nnn(CC(=O)O)n2)cc1
IC50: < 1000 nM
